According to PubChem BioAssay AID651710 (Broad Institute, 2012):
The list shows a part of the results, in another mix than the full data. Active and inactive are the calls of the source.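 How the source made its calls: active means every replicate showing at least 50% inhibition; inconclusive means mean inhibition at least 50% but not in every replicate; inactive means the rest.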

The chains behind the UniProt entries cited, without tags or fusion partners.
UniProt P43351, whole entry: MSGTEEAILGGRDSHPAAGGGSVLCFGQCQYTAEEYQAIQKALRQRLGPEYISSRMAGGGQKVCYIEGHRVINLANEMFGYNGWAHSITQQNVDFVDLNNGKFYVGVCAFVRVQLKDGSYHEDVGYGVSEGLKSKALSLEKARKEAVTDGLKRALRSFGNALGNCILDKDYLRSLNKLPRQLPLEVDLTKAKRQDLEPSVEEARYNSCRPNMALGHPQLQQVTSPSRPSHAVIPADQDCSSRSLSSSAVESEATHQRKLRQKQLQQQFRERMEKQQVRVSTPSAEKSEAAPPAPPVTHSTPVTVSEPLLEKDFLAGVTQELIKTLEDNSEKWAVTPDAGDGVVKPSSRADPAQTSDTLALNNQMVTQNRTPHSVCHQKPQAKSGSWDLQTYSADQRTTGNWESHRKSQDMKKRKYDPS

target: DNA repair protein RAD52 homolog (Homo sapiens) (UniProt P43351); assay: RAD52 DNA annealing inhibitors, primary screen, biochemical, FRET, single point, set 2 (AID 651710); settings: recombinant RAD52 DNA annealing, FRET fluorescence; at 18.7 µM; stronger effect = higher value

Compound | inhibition
CCC(=O)N(c1ccccc1)C1(COC)CCN(CCc2cccs2)CC1 | inactive: -0.804%
CCC(=O)N(c1ccccc1)C1(COC)CCN(CCn2nnn(CC)c2=O)CC1 | inactive: -13.1%
